Measurements: PubChem BioAssay AID465 (The Scripps Research Institute Molecular Screening Center, 2006)
This is a selection; strong and weak results do not stand in their true shares. Active and inactive are the calls of the source.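 The calls were made as follows: active = inhibition above the mean of all tested compounds plus 3 SD (cut at about 40% in these data); inactive = the rest.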

Experiment: inhibitors of PMA/ionomycin-induced NF-kB reporter, primary screen, antigen receptor NF-kB inhibitor project, cell-based, HEK-293 luciferase reporter, luminescence (AID 465);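 also: 0% = stimulated DMSO wells and 100% = 10 µM reference inhibitor 5653914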
Conditions: HEK-293 NF-kB luciferase reporter, at 3 µM, stronger effect = higher value
Summary of the method: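 Reagent: PMA plus ionomycin mix as NF-kB-activating stimulus. Assay system: NF-kB luciferase reporter HEK-293 cells. Technique: luminescence from luciferase substrate reagent. Incubation: 1 h compound pre-incubation, 16 h PMA/ionomycin at 37 °C. Benchmarks: DMSO only as uninhibited control, 10 µM reference inhibitor as full inhibition. Repeats: tested once.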

Row | SMILES | inhibition
1 | COc1ccc(NC2CCN(CCc3ccccc3)CC2)c(OC)c1 | inactive: 6.9%
2 | O=C(OC1CN2CCC1CC2)C1c2ccccc2Oc2ccccc21 (configuration not stated) | inactive: 21.3%
3 | N#CC1(Nc2ccccc2)CCN(CCc2ccccc2)CC1 | inactive: 8.6%
4 | N/C(=N\O)c1c(N)no[n+]1[O-] | inactive: 2.9%
5 | CCOc1ncccc1C(=O)NCC1(N2CCOCC2)CCCCC1 | inactive: 8.7%
6 | CCC(CO)(C(=O)OC1CN2CCC1CC2)c1ccccc1 (configuration not stated) | inactive: 3.6%
7 | Fc1ccccc1NC1CCN(Cc2ccccc2)CC1 | inactive: -3.1%
